The numbers were not newly measured in patent US20130034496A1, “POSITRON EMISSION TOMOGRAPHY TRACER” (UNIVERSITY OF IOWA RESEARCH FOUNDATION, priority 2011, published 2013), which cites them from elsewhere.

The conditions of this data set: mouse; cited from earlier work.

On to (S)-5,6,7,8-tetrahydrofolate [THF], for which the LD50 is 10000 mg/kg.

As a reminder, the LD50 is the dose at which mortality reaches 50%.
